Protein sequences, listed by entry. Tags and fused reporters are not part of them. Lines headed by an entry give the natural chain unless they say otherwise; changes in a name come on top. Residues count along the entry.
UniProt Q9NYL2: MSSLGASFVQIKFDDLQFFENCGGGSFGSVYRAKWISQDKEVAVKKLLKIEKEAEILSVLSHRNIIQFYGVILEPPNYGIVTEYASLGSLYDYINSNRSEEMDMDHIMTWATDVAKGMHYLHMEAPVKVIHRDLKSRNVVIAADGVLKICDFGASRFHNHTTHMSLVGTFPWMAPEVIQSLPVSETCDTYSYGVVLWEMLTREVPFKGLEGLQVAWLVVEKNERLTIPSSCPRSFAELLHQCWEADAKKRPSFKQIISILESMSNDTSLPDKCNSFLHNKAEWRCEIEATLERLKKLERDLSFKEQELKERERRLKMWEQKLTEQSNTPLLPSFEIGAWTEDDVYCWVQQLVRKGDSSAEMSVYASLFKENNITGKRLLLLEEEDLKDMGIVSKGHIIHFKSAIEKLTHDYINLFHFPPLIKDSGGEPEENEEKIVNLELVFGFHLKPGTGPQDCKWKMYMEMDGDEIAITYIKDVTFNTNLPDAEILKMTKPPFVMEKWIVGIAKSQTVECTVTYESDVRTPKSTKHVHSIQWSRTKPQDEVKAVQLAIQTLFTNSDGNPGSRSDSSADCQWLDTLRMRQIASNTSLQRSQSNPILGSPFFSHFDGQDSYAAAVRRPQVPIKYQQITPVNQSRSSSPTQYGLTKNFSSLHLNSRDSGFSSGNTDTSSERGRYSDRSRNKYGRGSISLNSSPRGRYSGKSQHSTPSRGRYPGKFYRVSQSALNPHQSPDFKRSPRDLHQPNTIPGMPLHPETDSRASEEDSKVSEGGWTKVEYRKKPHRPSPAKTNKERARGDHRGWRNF
UniProt Q14680: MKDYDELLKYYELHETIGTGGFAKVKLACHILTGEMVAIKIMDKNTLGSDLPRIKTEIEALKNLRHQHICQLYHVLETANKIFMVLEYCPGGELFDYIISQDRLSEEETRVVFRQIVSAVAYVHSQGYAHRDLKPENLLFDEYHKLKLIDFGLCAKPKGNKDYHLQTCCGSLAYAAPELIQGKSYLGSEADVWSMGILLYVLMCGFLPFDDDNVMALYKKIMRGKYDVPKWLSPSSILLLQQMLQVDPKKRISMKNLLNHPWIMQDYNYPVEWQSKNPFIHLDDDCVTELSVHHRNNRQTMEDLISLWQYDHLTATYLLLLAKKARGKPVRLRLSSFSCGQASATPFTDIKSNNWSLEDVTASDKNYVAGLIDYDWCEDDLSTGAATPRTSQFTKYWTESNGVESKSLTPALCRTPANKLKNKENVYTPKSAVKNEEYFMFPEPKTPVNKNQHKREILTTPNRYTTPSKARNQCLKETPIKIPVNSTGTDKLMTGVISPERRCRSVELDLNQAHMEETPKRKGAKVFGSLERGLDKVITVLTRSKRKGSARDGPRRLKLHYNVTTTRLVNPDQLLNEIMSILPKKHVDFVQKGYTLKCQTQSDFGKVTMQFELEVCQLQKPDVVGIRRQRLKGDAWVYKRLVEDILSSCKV
UniProt O75716, whole entry: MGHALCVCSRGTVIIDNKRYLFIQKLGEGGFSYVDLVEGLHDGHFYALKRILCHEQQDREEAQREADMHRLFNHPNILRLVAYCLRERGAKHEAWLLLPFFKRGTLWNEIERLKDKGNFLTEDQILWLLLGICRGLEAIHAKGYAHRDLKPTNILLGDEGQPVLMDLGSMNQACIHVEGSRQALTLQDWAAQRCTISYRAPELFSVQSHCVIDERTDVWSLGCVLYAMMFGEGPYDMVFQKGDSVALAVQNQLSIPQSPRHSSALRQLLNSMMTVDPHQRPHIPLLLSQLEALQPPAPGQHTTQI
UniProt P54760, 16-987: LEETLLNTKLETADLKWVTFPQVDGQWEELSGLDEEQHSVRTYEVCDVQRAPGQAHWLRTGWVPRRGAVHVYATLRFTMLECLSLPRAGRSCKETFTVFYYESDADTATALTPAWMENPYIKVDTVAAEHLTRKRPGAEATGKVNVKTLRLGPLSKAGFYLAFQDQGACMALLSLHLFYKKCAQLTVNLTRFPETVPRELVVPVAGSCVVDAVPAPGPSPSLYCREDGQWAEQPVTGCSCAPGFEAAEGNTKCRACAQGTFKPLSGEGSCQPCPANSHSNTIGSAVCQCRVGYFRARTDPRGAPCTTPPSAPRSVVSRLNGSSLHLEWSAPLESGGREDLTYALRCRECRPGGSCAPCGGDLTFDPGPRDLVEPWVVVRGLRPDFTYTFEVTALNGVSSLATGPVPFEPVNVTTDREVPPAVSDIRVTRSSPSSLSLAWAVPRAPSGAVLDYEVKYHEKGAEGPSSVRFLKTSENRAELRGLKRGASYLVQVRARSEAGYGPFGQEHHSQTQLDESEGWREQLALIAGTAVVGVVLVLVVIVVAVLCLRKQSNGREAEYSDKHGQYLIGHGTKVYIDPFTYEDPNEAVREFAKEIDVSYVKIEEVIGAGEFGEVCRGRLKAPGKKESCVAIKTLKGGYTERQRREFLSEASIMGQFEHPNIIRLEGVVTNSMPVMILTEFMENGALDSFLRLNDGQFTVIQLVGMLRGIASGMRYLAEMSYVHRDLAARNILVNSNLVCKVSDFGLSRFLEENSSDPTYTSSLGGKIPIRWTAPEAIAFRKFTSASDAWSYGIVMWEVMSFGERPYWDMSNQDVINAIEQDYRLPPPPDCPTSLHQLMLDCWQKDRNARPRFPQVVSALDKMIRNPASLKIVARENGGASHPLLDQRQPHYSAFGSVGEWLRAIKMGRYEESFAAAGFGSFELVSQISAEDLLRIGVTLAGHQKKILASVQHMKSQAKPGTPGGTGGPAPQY
UniProt P11362, 22-822: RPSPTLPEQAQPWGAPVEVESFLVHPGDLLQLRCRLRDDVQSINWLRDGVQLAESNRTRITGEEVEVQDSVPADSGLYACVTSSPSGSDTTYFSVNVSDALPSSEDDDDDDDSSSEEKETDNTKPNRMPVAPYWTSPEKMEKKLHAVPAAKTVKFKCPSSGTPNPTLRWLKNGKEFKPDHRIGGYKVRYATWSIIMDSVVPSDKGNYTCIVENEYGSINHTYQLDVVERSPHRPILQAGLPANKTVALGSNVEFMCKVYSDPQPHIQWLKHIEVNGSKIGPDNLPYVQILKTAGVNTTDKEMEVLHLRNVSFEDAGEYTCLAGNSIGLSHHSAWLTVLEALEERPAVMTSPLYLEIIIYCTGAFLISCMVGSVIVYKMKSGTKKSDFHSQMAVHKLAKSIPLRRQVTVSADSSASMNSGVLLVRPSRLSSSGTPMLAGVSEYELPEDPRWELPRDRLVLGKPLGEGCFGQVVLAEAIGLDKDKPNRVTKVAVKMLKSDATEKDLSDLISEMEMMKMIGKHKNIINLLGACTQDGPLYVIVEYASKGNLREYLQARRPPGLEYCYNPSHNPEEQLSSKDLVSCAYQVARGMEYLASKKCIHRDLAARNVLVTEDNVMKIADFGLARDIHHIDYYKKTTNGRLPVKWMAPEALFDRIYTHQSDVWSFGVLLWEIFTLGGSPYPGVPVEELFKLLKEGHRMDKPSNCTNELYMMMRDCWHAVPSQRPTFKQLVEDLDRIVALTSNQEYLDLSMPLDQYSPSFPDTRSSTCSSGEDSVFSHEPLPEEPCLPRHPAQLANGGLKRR
UniProt P49841: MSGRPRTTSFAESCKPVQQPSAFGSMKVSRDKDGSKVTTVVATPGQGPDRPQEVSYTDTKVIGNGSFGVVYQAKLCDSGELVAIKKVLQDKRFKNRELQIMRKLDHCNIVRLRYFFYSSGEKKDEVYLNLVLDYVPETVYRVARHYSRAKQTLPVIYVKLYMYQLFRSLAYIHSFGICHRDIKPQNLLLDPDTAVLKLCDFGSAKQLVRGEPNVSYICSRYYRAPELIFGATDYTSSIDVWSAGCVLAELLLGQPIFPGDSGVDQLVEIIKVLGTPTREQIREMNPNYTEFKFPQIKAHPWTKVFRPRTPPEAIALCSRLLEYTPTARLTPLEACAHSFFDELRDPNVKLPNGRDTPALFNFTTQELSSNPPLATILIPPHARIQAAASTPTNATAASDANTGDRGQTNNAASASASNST
UniProt O75521, 39-394: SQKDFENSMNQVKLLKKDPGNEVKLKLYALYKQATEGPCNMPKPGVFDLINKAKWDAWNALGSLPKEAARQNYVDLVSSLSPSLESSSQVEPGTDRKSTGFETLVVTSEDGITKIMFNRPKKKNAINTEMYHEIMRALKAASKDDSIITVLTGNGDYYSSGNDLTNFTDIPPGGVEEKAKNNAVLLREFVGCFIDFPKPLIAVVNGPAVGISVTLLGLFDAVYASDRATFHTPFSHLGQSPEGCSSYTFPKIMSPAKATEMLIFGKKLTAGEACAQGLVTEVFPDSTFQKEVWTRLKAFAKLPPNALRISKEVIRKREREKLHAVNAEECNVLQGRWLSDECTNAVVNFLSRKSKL
UniProt P27707: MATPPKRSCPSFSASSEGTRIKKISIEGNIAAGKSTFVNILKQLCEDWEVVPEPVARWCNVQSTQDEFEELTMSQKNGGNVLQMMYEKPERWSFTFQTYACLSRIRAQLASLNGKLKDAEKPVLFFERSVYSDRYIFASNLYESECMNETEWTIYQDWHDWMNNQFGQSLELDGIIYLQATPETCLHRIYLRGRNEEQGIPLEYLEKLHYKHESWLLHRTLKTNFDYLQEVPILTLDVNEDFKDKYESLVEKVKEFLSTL
UniProt Q16584: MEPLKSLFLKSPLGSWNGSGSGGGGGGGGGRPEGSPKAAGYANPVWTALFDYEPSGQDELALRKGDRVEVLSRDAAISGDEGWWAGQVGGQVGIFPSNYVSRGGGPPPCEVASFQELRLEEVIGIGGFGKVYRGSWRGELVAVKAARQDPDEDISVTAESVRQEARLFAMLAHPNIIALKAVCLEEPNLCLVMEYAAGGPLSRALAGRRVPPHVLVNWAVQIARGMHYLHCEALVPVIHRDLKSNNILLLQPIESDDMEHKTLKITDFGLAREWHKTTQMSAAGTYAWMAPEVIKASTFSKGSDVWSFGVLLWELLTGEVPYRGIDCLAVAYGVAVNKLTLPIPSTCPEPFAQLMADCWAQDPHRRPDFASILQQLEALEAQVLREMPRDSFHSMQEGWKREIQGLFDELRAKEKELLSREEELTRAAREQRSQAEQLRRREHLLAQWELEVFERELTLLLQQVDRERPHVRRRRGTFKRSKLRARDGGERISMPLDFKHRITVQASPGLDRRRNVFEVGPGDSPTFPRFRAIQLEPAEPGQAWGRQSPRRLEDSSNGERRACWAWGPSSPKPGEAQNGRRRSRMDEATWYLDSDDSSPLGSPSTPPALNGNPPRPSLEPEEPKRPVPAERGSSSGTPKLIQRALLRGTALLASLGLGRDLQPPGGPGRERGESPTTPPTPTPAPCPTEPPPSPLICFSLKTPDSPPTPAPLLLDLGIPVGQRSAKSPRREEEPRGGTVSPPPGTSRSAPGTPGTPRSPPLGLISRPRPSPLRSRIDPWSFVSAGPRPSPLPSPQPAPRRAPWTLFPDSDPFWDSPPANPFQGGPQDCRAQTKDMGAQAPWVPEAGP
UniProt O96013: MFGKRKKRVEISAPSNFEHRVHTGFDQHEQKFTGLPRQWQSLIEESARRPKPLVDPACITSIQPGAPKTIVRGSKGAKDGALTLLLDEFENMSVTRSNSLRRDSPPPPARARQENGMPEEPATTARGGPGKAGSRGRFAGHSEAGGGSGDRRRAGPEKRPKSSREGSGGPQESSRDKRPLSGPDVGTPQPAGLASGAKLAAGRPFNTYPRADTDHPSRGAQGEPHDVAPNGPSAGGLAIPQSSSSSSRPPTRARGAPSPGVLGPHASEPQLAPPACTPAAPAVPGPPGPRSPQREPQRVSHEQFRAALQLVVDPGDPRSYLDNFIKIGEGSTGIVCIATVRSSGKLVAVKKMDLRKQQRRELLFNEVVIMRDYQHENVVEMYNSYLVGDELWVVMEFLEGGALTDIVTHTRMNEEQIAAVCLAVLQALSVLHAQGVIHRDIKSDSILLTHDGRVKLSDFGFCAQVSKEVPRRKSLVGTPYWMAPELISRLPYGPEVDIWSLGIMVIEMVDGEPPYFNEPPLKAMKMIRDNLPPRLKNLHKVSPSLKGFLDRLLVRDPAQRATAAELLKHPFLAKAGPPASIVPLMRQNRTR
UniProt Q13131: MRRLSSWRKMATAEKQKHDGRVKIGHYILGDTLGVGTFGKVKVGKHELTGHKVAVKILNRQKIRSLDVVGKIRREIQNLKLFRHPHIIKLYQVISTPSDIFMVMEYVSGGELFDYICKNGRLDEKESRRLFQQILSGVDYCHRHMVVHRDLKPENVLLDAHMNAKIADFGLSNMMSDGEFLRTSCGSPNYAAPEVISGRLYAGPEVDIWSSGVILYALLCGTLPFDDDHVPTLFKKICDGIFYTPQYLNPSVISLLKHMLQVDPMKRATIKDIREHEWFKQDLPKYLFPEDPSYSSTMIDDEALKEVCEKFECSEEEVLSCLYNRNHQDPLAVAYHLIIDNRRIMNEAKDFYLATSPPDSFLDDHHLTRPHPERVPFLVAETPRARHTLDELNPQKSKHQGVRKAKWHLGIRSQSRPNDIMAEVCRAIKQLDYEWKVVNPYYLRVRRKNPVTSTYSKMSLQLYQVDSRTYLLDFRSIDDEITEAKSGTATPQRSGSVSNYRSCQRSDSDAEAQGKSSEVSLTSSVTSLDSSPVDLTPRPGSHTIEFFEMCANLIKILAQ

According to patent publication US8959984B2, “Proteome-wide quantification of small molecule binding to cellular target proteins” (priority 2007, dated 2015):

What was measured:
Test in all cases: Ki determination for immobilized VI16742: two consecutive incubations, control beads, ligand concentration and incubation time controls (Tables 7, 8)
Format in all cases: binding
[1] = target: cellular target proteins in HeLa cell lysate (Homo sapiens, UniProt Q9NYL2); settings: Ki (VI16742)
[2] = target: cellular target proteins in HeLa cell lysate (Homo sapiens, UniProt P14635); settings: Ki (VI16742), CCNB1 IPI00745793
[3] = target: cellular target proteins in HeLa cell lysate (Homo sapiens, UniProt Q14680); settings: Ki (VI16742), MELK IPI00006471
[4] = target: cellular target proteins in HeLa cell lysate (Homo sapiens, UniProt O75716); settings: Ki (VI16742), MPSK1 (STK16) IPI00306833
[5] = target: cellular target proteins in HeLa cell lysate (Homo sapiens, UniProt P54760); settings: Ki (VI16742), EphB4 (EPHB4) IPI00289342
[6] = target: cellular target proteins in HeLa cell lysate (Homo sapiens, UniProt P11362); settings: Ki (VI16742), FGFR1 IPI00005142
[7] = target: cellular target proteins in HeLa cell lysate (Homo sapiens, UniProt P49841); settings: Ki (VI16742), GSK3B IPI00216190
[8] = target: cellular target proteins in HeLa cell lysate (Homo sapiens, UniProt O60563); settings: Ki (VI16742), CCNT1 IPI00030247
[9] = target: cellular target proteins in HeLa cell lysate (Homo sapiens, UniProt O75521); settings: Ki (VI16742), PECI IPI00639841
[10] = target: cellular target proteins in HeLa cell lysate (Homo sapiens, UniProt P27707); settings: Ki (VI16742), DCK IPI00020454
[11] = target: cellular target proteins in HeLa cell lysate (Homo sapiens, UniProt Q16584); settings: Ki (VI16742), MLK3 (MAP3K11) IPI00000977
[12] = target: cellular target proteins in HeLa cell lysate (Homo sapiens, UniProt P51812); settings: Ki (VI16742), RSK2 (RPS6KA3) IPI00020898
[13] = target: cellular target proteins in HeLa cell lysate (Homo sapiens, UniProt P14735); settings: Ki (VI16742), IDE IPI00220373
[14] = target: cellular target proteins in HeLa cell lysate (Homo sapiens, UniProt Q9BUL8); settings: Ki (VI16742), PDCD10 IPI00298558
[15] = target: cellular target proteins in HeLa cell lysate (Homo sapiens, UniProt O96013); settings: Ki (VI16742), PAK4 IPI00014068
[16] = target: cellular target proteins in HeLa cell lysate (Homo sapiens, UniProt Q2M2I8); settings: Ki (VI16742), AAK1 IPI00479760
[17] = target: cellular target proteins in HeLa cell lysate (Homo sapiens, UniProt Q13131); settings: Ki (VI16742), AMPKa1 (PRKAA1) IPI00410287
[18] = target: cellular target proteins in HeLa cell lysate (Homo sapiens, UniProt Q9UKI8); settings: Ki (VI16742), TLK1 IPI00333559
[19] = target: cellular target proteins in HeLa cell lysate (Homo sapiens, UniProt Q6XUX3); settings: Ki (VI16742), SgK496 (RIPK5) IPI00465346

With `CC(C)n1c(=O)ccc2cnc(Nc3ccc(OCCN)cc3)nc21` [V16742] the Ki ([1]; ZAK (MLTK) IPI00029643) was 4.07 µM, the Ki ([1]; ZAK (MLTK) IPI00329638) was 6.34 µM and the Ki [2] was 31.8 µM. It also gave a Ki [3] of 8.73 µM, a Ki [4] of 7.45 µM and a Ki [5] of 41.9 µM. For the same molecule, the Ki [6] was 23.2 µM, the Ki [7] was 5.21 µM and the Ki [8] was 9.22 µM. It also gave a Ki [9] of 10.4 µM, a Ki [10] of 57.8 µM and a Ki [11] of 19.1 µM. It also gave a Ki [12] of 62.2 µM, a Ki [13] of 20.7 µM and a Ki [14] of 69.8 µM. The Ki [15] was 46.3 µM, the Ki [16] was 7.18 µM and the Ki [17] was 17.8 µM. For the same molecule, the Ki [18] was 49.3 µM and the Ki [19] was 15.8 µM.
